Experimental data reported in US20260382547A1, “AGENT FOR PREVENTING OR AMELIORATING PRURITUS” (published 2026).

Protein sequences, listed by entry. Tags and fused reporters are not part of them.
UniProt Q16581, whole entry: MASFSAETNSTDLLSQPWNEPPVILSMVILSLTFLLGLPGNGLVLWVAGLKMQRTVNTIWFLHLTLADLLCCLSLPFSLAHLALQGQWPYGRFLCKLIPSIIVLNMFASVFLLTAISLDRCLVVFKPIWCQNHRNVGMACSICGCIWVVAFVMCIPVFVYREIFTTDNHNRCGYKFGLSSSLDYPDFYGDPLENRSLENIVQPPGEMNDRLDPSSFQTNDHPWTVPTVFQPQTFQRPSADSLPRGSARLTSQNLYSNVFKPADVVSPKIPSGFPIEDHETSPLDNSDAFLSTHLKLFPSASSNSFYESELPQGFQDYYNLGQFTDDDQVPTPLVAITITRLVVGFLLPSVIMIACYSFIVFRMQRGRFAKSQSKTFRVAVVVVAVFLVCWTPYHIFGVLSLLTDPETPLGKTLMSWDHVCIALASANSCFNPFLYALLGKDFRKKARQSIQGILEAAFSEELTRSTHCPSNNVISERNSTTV

Columns and labels:
[1] = test system: AEW model mice (C57BL/6J); test: Scratching behavior in AEW model mice (Reference Example 5); settings: 0.5 mg/mL, 200 μL subcutaneously, once daily for 8 days; measured for 3 hours; FIG. 8
Text: The animals used were male C57BL/6J mice.
Preparation of AEW model: The back of the neck was shaved, and absorbent cotton soaked with a 1:1 (v/v) mixture of acetone and diethyl ether was applied and allowed to stand for 15 seconds. Immediately thereafter, absorbent cotton soaked with water was applied for 30 seconds. This treatment was repeated twice/day (morning and evening) for 7 days.
(§1) 2. Sample Preparation and Method of Administration
(§2) The compound 1, whose C3a receptor antagonism was confirmed in Example 1 above, was used as a C3a receptor antagonist. The compound 1 was dissolved in saline containing 20% polyethylene glycol 400, of which 200 μL was administered subcutaneously to the back of the neck. The control group was administered the same amount of only the above solvent. The concentration of the C3a receptor antagonist solution was set at 0.5 mg/mL. Sample administration started after the first AEW treatment and was performed at a frequency of once daily for 8 days.
3. Measurement of Scratching Behavior
Sixteen hours after the last AEW treatment, the scratching behavior was measured for 3 hours after the last administration of the sample. MicroAct (Neuroscience) was used to measure the scratching behavior.

human C3a receptor = human C3a receptor (Homo sapiens, UniProt Q16581); test: Ca2+-flux assay, C3a receptor antagonism in HEK293 cells expressing human C3a receptor and GNA16; settings: final conc.: compound 1 1 μM, tipelukast 10 μM; ligands mouse TLQP-21 1 μM or human C3a 300 nM; FIG. 1
Text: Mouse TLQP-21 (Tocris Bioscience, sequence: […], the same applies hereinafter) and human C3a recombinant protein (R&D systems) were used. The solvent was HBSS (Gibco).
The compound 1 (L-arginine, N2-[[5-(diphenylmethyl)-2-thienyl]carbonyl]) synthesized in accordance with a previous report (Rowley, J. A. et al. Journal of Medicinal Chemistry, 2020; 63(2):529-541) and tipelukast (Cayman Chemical) were used as C3a receptor antagonists. In the following evaluation, the compound 1 and tipelukast were dissolved in DMSO and diluted with HBSS as appropriate.
3. Cells for Evaluating C3a Receptor Response
Human Embryonic Kidney cells 293 (HEK293) were used, into which the expression vectors necessary for evaluation were introduced according to the following. […]
The cells for evaluating C3a receptor response described above were seeded in a BioCoat (Registered Trademark) Poly-D-Lysine 96-well Black Flat Bottom Microplate (CORNING). […] After 15 minutes, C3a receptor ligand solution (mouse TLQP-21 solution or human C3a recombinant protein solution) was added for C3a receptor stimulation, and the Ca^2+ influx associated with the stimulation was measured over time as intracellular fluorescence intensity (Ex: 480 nm, Em: 540 nm). The value obtained by subtracting the measured value when HBSS was added instead of the C3a receptor ligand solution (blank) was used as the measured value. […]

AD model mice (NC/Nga) [2] = test: Scratching behavior in AD model mice (mite allergen ointment, Reference Example 4); settings: 0.5 mg/mL, 200 μL subcutaneously, three times a week; measured for 3 hours; FIG. 7
Description: Seven-week-old female NC/Nga mice were used.
Preparation of AD model mice: The back of the neck was shaved, and 100 mg of an ointment containing mite allergen: Biostir AD (Biostir Inc.) was applied to the back of the neck and auricular region under isoflurane anesthesia for initial sensitization. Four days after the first application of the ointment containing mite allergen, 150 μL of 4% (w/v) SDS solution and 100 mg of ointment containing mite allergen were applied to the back of the neck and auricular region under isoflurane anesthesia. Thereafter, the same procedure was performed four times at a frequency of once every 3 to 4 days to induce AD-like dermatitis.
as §1
as §2, with “Sample administration started after the first AEW treatment and was performed at a frequency of once daily for 8 days.” left out
Four days after the last application of the ointment containing mite allergen, the scratching behavior was measured for 3 hours after the last administration of the sample. […]

Mice = settings: oral, consecutive days; eLife, 2019 8: e44116; cited from earlier work
leukotriene receptor = settings: cited from earlier work
[3] = test system: phosphodiesterases (PDEs, mainly −3 and −4); settings: mainly PDE-3 and -4; cited from earlier work
[4] = test system: 5-lipoxygenase (5-LO) pathway; settings: by inhibiting leukotriene biosynthesis via the 5-LO pathway; cited from earlier work
blood triglycerides = settings: cited from earlier work
AD model mice (NC/Nga) [5] = test: Scratching behavior in AD model mice (fur mite-parasitized NC/Nga, Example 2); settings: oral, 5 mg/mL suspension at 10 mL/kg; measurement time 22 hours; FIG. 9
Description: NC/Nga mice were parasitized with mouse fur mites (M. musculi) to spontaneously generate dermatitis, and were used as an AD model. Fourteen-week-old males having developed dermatitis were used. After one week of acclimation, the back of their necks was shaved and their scratching behavior was measured. The mice were divided into two groups of eight mice each to ensure an equal number of scratching behaviors.
(§3) 2. Preparation of Evaluation Sample
(§4) Tipelukast (Cayman Chemical) was used. Carboxymethyl cellulose (Maruishi Pharmaceutical Co., Ltd.) prepared at 0.5% with water for injection was used as a solvent. The weighed tipelukast was lightly crushed using an agate pestle, and then the solvent dropwise addition and mixing were repeated to obtain a suspension (5 mg/mL). The preparation was done on the day of administration and stored at room temperature until administration.
3. […]
The dosage (10 mL/kg) was calculated by measuring body weight, and the prepared evaluation samples were administered orally with an oral gavage needle for mice and a disposable syringe. […]
(§5) MicroAct (Neuroscience) was used to measure the scratching behavior. […] Measurements were made on the day before (before administration) and on the day of administration (after administration) of tipelukast, and the antipruritic effect of tipelukast was evaluated by comparing the number of scratching behaviors before and after administration.

5-lipoxygenase = settings: cited from earlier work
[6] = test system: ANIT model mice (C57BL/6J); test: Scratching behavior in ANIT model mice, pruritus associated with cholestasis (Example 3); settings: oral, 5 mg/mL suspension at 10 mL/kg; measurement time 22 hours; FIG. 10
Description: Shaved male C57BL/6J mice were used. To eight-week-old C57BL/6J mice, α-naphthyl isothiocyanate (ANIT) dissolved in olive oil (FUJIFILM Wako Pure Chemical) was orally administered once daily for 10 days with an oral gavage needle for mice and a disposable syringe. Before administration, body weight was measured to ensure administration at 25 mg/10 mL/kg (ANIT model).
as §3, §4
3. Administration of Evaluation Sample
The dosage (10 mL/kg) was calculated by measuring body weight, and the prepared evaluation samples were administered orally with an oral gavage needle for mice and a disposable syringe.
4. […]
as §5

| SMILES | scratching behavior compared to solvent alone [1] | fluorescence intensity due to C3a receptor stimulation by C3a receptor ligands (Ca2+ influx), vs control (human C3a receptor) | scratching behavior compared to solvent alone (AD model mice (NC/Nga) [2]) | cholestasis-like symptoms and scratching behavior (Mice) | effect on the leukotriene receptor (leukotriene receptor) | effect on phosphodiesterases [3] | effect on inflammation and fibrosis [4] | effect on blood triglycerides (blood triglycerides) | scratching behavior (events), after vs before administration (AD model mice (NC/Nga) [5]) | effect on 5-lipoxygenase (5-lipoxygenase) | scratching behavior (events), after vs before administration [6] |
| --- | --- | --- | --- | --- | --- | --- | --- | --- | --- | --- | --- |
| N=C(N)NCCC[C@H](NC(=O)c1ccc(C(c2ccccc2)c2ccccc2)s1)C(=O)O | significant decrease in scratching behavior | suppressed | significant decrease in scratching behavior |  |  |  |  |  |  |  |  |
| S=C=Nc1cccc2ccccc12 |  |  |  | cholestasis-like symptoms and increased scratching behavior |  |  |  |  |  |  |  |
| CCCc1c(SCCCOc2ccc(C(C)=O)c(OCCCC(=O)O)c2CCC)ccc(C(C)=O)c1O |  | suppressed |  |  | antagonistic effect | inhibitory effect | reducing inflammation and preventing fibrosis | reducing blood triglycerides | significant decrease in scratching behavior | inhibitory effect | significant decrease in scratching behavior |
